This is a selection; strong and weak results do not stand in their true shares. Records with an inconclusive call do not appear. Activity calls are given as the source filed them.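 The calls were made as follows: active = cell viability at or below a set limit in both duplicate runs, the limit being the all-compound median minus 4 SD (cut at about 23% in these data, passing the limit was not always enough); inconclusive = no clear call, values can overlap the other calls; inactive = the rest.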

This test in a line: growth suppression of beta-catenin knockout HCT116, pilot screen, human colon tumor cells (AID 823).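 Also: 0% = wells killed by 20 µM Hyamine and 100% = untreated DMSO cell wells.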 The following applies: CellTiter-Glo, 60 h, at 10 µM, stronger effect = lower value.
One may read the viability as the share of living cells, or the viability signal relative to a control. `COC(=O)c1cc2c(s1)N=C(c1ccccc1)N(C)P2(=O)N1CCOCC1` (stereo unspecified): the viability was inactive: 93.1%.

The record behind these values is PubChem BioAssay AID823 (SRMLSC, 2007).
